From PubChem BioAssay AID1154 (ChemBank, 2008)
The entries are a selection whose mix differs from that of the whole data set. The source made the active and inactive calls.

Assay: PSAC antagonists in infected red cells, primary screen, cell-based, P. falciparum Indochina, OD700, 1 h (AID 1154)
Conditions: P. falciparum Indochina infected RBC osmotic lysis, higher = more signal, called active from +8 up or from −8 down

SMILES | z-score
COP(=O)(/N=C1/CC(CCCO)=CC(C2CC2)N1Cc1cc2c(cc1Br)OCO2)OC (stereo not given) | inactive: 3.22
CN1/C(=N\P(=O)(Oc2ccccc2)Oc2ccccc2)CC(CCCO)=CC1c1cccs1 (stereo not given) | inactive: 2.04
COP(=O)(/N=C1/CC(CCCO)=CC(C2CC2)N1Cc1cccc(OC(F)(F)F)c1)OC (stereo not given) | inactive: 0.553
O=P(/N=C1/CC(CCCO)=CC(C2CC2)N1Cc1cc2c(cc1Br)OCO2)(Oc1ccccc1)Oc1ccccc1 (stereo not given) | inactive: 3.13
COP(=O)(/N=C1/CC(CCCO)=CC(c2ccc(CN3CCCC3)cc2)N1Cc1cc2c(cc1Br)OCO2)OC (stereo not given) | inactive: 0.725
O=P(/N=C1/CC(CCCO)=CC(c2ccc(CN3CCCC3)cc2)N1Cc1cc2c(cc1Br)OCO2)(Oc1ccccc1)Oc1ccccc1 (stereo not given) | inactive: 0.732
CC1C=C(CCCO)C/C(=N/P(=O)(Oc2ccccc2)Oc2ccccc2)N1Cc1cccc(OC(F)(F)F)c1 (stereo not given) | inactive: 0.987
CN1/C(=N\P(=O)(Oc2ccccc2)Oc2ccccc2)CC(c2ccc(CO)cc2)=CC1C1CC1 (stereo not given) | inactive: 2.09
O=P(/N=C1/CC(CCCO)=CC(c2cccs2)N1Cc1cccc(OC(F)(F)F)c1)(Oc1ccccc1)Oc1ccccc1 (stereo not given) | inactive: 2.3
O=P(/N=C1/CC(CCCO)=CC(C2CC2)N1Cc1cccc(OC(F)(F)F)c1)(Oc1ccccc1)Oc1ccccc1 (stereo not given) | inactive: 1.47
O=P(/N=C1/CC(c2ccc(CO)cc2)=CC(C2CC2)N1Cc1cc2c(cc1Br)OCO2)(Oc1ccccc1)Oc1ccccc1 (stereo not given) | inactive: 6.93
O=P(/N=C1/CC(c2ccc(CO)cc2)=CC(c2cccs2)N1Cc1cccc(OC(F)(F)F)c1)(Oc1ccccc1)Oc1ccccc1 (stereo not given) | inactive: 3.35
COP(=O)(/N=C1/CC(c2ccc(CO)cc2)=CC(c2cccs2)N1C)OC (stereo not given) | inactive: 3.91
CN1/C(=N\P(=O)(Oc2ccccc2)Oc2ccccc2)CC(CCCO)=CC1c1ccc(CN2CCCC2)cc1 (stereo not given) | inactive: 0.689
O=P(/N=C1/CC(CCCO)=CC(c2cccs2)N1Cc1cc2c(cc1Br)OCO2)(Oc1ccccc1)Oc1ccccc1 (stereo not given) | inactive: 4.44
COP(=O)(/N=C1/CC(CCCO)=CC(c2ccc(CN3CCCC3)cc2)N1Cc1cccc(OC(F)(F)F)c1)OC (stereo not given) | inactive: 0.816
CN1/C(=N\P(=O)(Oc2ccccc2)Oc2ccccc2)CC(c2ccc(CO)cc2)=CC1c1cccs1 (stereo not given) | inactive: 2.48
COP(=O)(/N=C1/CC(c2ccc(CO)cc2)=CC(C2CC2)N1Cc1sc2ccccc2c1Cl)OC (stereo not given) | active: 13.7
COP(=O)(/N=C1/CC(CCCO)=CC(c2cccs2)N1C)OC (stereo not given) | inactive: 0.773
COP(=O)(/N=C1/CC(CCCO)=CC(C2CC2)N1C)OC (stereo not given) | inactive: -1.02
COP(=O)(/N=C1/CC(CCCO)=CC(c2ccc(CN3CCCC3)cc2)N1C)OC (stereo not given) | inactive: -0.365
COP(=O)(/N=C1/CC(CCCO)=CC(C)N1Cc1cccc(OC(F)(F)F)c1)OC (stereo not given) | inactive: -0.277
COP(=O)(/N=C1/CC(CCCO)=CC(C2CC2)N1Cc1sc2ccccc2c1Cl)OC (stereo not given) | inactive: 7.58
COP(=O)(/N=C1/CC(c2ccc(CO)cc2)=CC(C2CC2)N1C)OC (stereo not given) | inactive: 1.07
COP(=O)(/N=C1/CC(c2ccc(CO)cc2)=CC(C2CC2)N1Cc1cc2c(cc1Br)OCO2)OC (stereo not given) | active: 9.29
O=P(/N=C1/CC(CCCO)=CC(C2CC2)N1Cc1sc2ccccc2c1Cl)(Oc1ccccc1)Oc1ccccc1 (stereo not given) | inactive: 7.46
COP(=O)(/N=C1/CC(CCCO)=CC(c2ccc(CN3CCCC3)cc2)N1Cc1sc2ccccc2c1Cl)OC (stereo not given) | inactive: 4.09
O=P(/N=C1/CC(c2ccc(CO)cc2)=CC(C2CC2)N1Cc1sc2ccccc2c1Cl)(Oc1ccccc1)Oc1ccccc1 (stereo not given) | inactive: 7.89
O=P(/N=C1/CC(CCCO)=CC(c2ccc(CN3CCCC3)cc2)N1Cc1sc2ccccc2c1Cl)(Oc1ccccc1)Oc1ccccc1 (stereo not given) | inactive: 4.57
CN1/C(=N\P(=O)(Oc2ccccc2)Oc2ccccc2)CC(CCCO)=CC1C1CC1 (stereo not given) | inactive: 0.0313
